PglD inh = PglD (C. jejuni) enzyme inhibition | hit rate 0.098% among 360,000 | AID 602405 | purified PglD enzyme, DTNB colorimetric CoA detection | inhibition, % at 12.5 µM; in the data active means inhibition above about 16%, passing the limit was not always enough
E-sel inducer = E-selectin induction on HUVECs; HUVEC E-selectin immunofluorescence imaging; normalized: neutral wells 0, TNF-alpha wells 100; hit rate 0.37% among 260,000; activation, % at 7.58 µM; P16581;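 active means mean E-selectin-positive cell signal at least 10% of the positive control, reached in at least 60% of replicates, without over 20% cell loss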
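material = human umbilical vein endothelial cells (HUVEC), E-selectin induction | quantity = 3,000 cells/well | medium = EGM-2 growth medium on 0.1% gelatin-coated wells | technique = immunofluorescence imaging | read-out basis = % PE-positive cells | control set = TNF-alpha positive control, DMSO neutral control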
Statin myotox sup = protects C2C12 myotubes from simvastatin toxicity | ATP luminescence, 48 h; scaled: DMSO 0, geranylgeraniol control 100 | rescue of ATP level, % at 7.49 µM | hit rate 0.78% among 330,000;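 active means mean ATP rescue above about 67%, or every replicate alone reaching that limit, limit read from the data, passing the limit was not always enough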;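 further: myotubes were challenged with 10 µM simvastatin during compound exposure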
PGC1a acetyl inh = lowers PGC1a acetylation signal in U2OS cells | AID 651687 | inhibition, % at 15.6 µM | AlphaScreen anti-acetyl-lysine; with virally co-expressed GCN5 acetyltransferase | hit rate 0.17% among 350,000;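 active means every replicate shows inhibition of at least 40%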
Yeast UUG start = modulators of yeast start codon fidelity, primary screen, whole organism, S. cerevisiae, single point, plate reader | AID 602363, 2012 | S. cerevisiae UUG-firefly luciferase reporter, luminescence/redox ratio | activity score, % at 18.7 µM | hit rate 0.13% among 350,000;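 active = replicate mean at a twofold rise or more, about +100% in these data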;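 also: firefly luciferase made from a UUG start codon reports start codon fidelity; reporter light over untreated wells divided by growth signal over untreated wells; some hits fall short of that in this replicate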
esBAF inh = blocks esBAF chromatin remodeling in mouse ES cells. Bmi1-luciferase knock-in reporter, 24 h; 100% = twice the neutral-well signal. reporter increase, % at 12.5 µM. hit rate 2% among 350,000. AID 602393; in the data active means activation above about 40%;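 further: a rise in the Bmi1 reporter signal indicates esBAF inhibition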
Each line names hits and unclear results; the compound was inactive in the other large screens. Only some compounds are listed: those with a hit (about 2.8% of all), similar ones and a draw of the others.

O=C(COC(=O)c1cccnc1Cl)c1ccc(F)cc1	none (no result: PglD inh, E-sel inducer, Statin myotox sup, Yeast UUG start, esBAF inh)
CCCNC(=O)N(C)C[C@@H]1Oc2ncc(C#C[C@@H](C)O)cc2C(=O)N([C@@H](C)CO)C[C@H]1C	none (no result: Statin myotox sup)
COc1ccccc1S(=O)(=O)N[C@H]1CC[C@H](CCn2cc(C3CCCCC3)nn2)O[C@H]1CO	none (no result: Yeast UUG start)
Cc1nnc(Nc2ccc(C(=O)O)cc2)[nH]c1=O	none (no result: PglD inh, E-sel inducer, Statin myotox sup, Yeast UUG start, esBAF inh)
Cc1nnc(Nc2ccc(O)cc2)[nH]c1=O	Statin myotox sup 106.6 (no result: E-sel inducer)
O=C(c1ccc(F)cc1)c1ccc(-c2ccc(F)cc2)nc1	esBAF inh 43.8
C[C@@H]1CN([C@H](C)CO)C(=O)Cc2cc(NC(=O)Cn3cnnn3)ccc2O[C@@H]1CN(C)C(=O)Nc1ccc(C(F)(F)F)cc1	none
COc1cccc(CNc2ccc(S(N)(=O)=O)cc2)c1OCc1ccccc1F	none (no result: PglD inh, Statin myotox sup, PGC1a acetyl inh, Yeast UUG start, esBAF inh)
COc1cccc(CNc2ccccc2O)c1OCc1ccccc1F	Statin myotox sup 96.1 (no result: E-sel inducer)
COCC#Cc1cnc2c(c1)C(=O)N([C@@H](C)CO)C[C@H](C)[C@H](CN(C)C(=O)c1cccc(F)c1)O2	none
CCOC(=O)/C=C(\C)Nc1cc(C)nn1-c1ccccc1	Statin myotox sup 127.0 (no result: E-sel inducer)
CC=Cc1ccc2n(c1=O)C[C@@H]1[C@@H](CO)[C@H](C(=O)Nc3ccc(-c4ccccc4)cc3)N(C)[C@H]21 (mixture of isomers)	esBAF inh 61.1 (no result: PGC1a acetyl inh, Yeast UUG start)
CC=Cc1ccc2n(c1=O)C[C@@H]1[C@@H](CO)[C@H](C(=O)Nc3ccc(-c4ccccc4)cc3)N(CC)[C@H]21 (mixture of isomers)	none (no result: PGC1a acetyl inh)
CC=Cc1ccc2n(c1=O)C[C@H]1[C@H](CO)[C@@H](C(=O)Nc3ccc(-c4ccccc4)cc3)N(CC)[C@@H]21 (mixture of isomers)	esBAF inh 46.2 (no result: PGC1a acetyl inh)
COc1ccc(S(=O)(=O)N(C)C[C@@H]2Oc3c(NS(=O)(=O)c4ccc(F)cc4)cccc3C(=O)N([C@H](C)CO)C[C@@H]2C)cc1	E-sel inducer 62.2
COc1ccc(S(=O)(=O)Nc2cccc3c2O[C@H](CN(C)S(=O)(=O)c2ccc(Cl)cc2)[C@H](C)CN([C@@H](C)CO)C3=O)cc1	Statin myotox sup 91.0
O=C(CC1CC1)N1CC(=O)N2[C@H](CO)[C@H](c3ccc(C#Cc4cccc(F)c4)cc3)[C@@H]2C1	none (no result: PglD inh, Statin myotox sup, Yeast UUG start, esBAF inh)
C[C@H]1CN([C@@H](C)CO)C(=O)Cc2cc(NC(=O)C3CCCCC3)ccc2O[C@H]1CN(C)Cc1ccc(Cl)c(Cl)c1	none
C[C@H](CO)N1C[C@H](C)[C@@H](CN(C)Cc2ccc3c(c2)OCO3)Oc2ccc(NC(=O)C3CC3)cc2CC1=O	none
C[C@@H]1CN([C@H](C)CO)C(=O)Cc2cc(NC(=O)C3CCCCC3)ccc2O[C@H]1CN(C)Cc1ccc(Cl)c(Cl)c1	Statin myotox sup 139.4
C[C@@H]1CN([C@@H](C)CO)C(=O)Cc2cc(NC(=O)C3CC3)ccc2O[C@@H]1CN(C)Cc1ccc2c(c1)OCO2	E-sel inducer 48.8
C[C@H](CO)N1C[C@H](C)[C@@H](CN(C)Cc2ccc(Cl)c(Cl)c2)Oc2ccc(NC(=O)C3CCCCC3)cc2CC1=O	Statin myotox sup 131.8
C[C@H]1CN([C@@H](C)CO)C(=O)c2cc(C#CCN(C)C)cnc2O[C@@H]1CN(C)C(=O)Nc1cccc(F)c1	none
O=C(C1CCCC1)N1CCCCN2[C@@H](CO)[C@H](c3ccc(C#CC4(O)CCCC4)cc3)[C@@H]2C1	none (no result: E-sel inducer, Statin myotox sup, esBAF inh)
CN(C)C(=O)c1ccc(-c2ccc(C3[C@@H]4CN(C(=O)CN5CCOCC5)C[C@H]3N4)cc2)cc1 (some centres not stated)	none (no result: PglD inh, Statin myotox sup, Yeast UUG start, esBAF inh)
CCC(CC)C(=O)NCCc1cc2cc(C)c(C)cc2[nH]c1=O	none
O=C(NCCc1cccc(Cl)c1)c1cccs1	esBAF inh 63.5 (no result: E-sel inducer)
Cc1cc2cc(CCNC(=O)c3cccs3)c(=O)[nH]c2cc1C	esBAF inh 81.7
Cc1occc1C(=O)NCCc1cccc(Cl)c1	esBAF inh 52.0 (no result: E-sel inducer)
CCC(=O)Nc1ccc2c(c1)OC[C@H](C)N(C(=O)c1cccnc1)C[C@@H](C)[C@@H](OC)CN(C)C2=O	none
Cc1noc(C)c1S(=O)(=O)Nc1cccc2c1O[C@H](CN(C)C(=O)NC(C)C)[C@H](C)CN([C@@H](C)CO)C2=O	none (no result: Statin myotox sup)
C[C@H](CO)N1C[C@H](C)[C@H](CN(C)S(=O)(=O)c2ccc(F)cc2)Oc2ccc(NC(=O)Nc3cccc4ccccc34)cc2C1=O	none
CN(C)c1nc(Oc2ccc(C(=O)OCC(=O)Nc3ccccc3)cc2)nc(N(C)C)n1	Statin myotox sup 119.1 (no result: E-sel inducer)
C[C@H]1CCCCO[C@H](CN(C)C(=O)Nc2ccccc2)[C@@H](C)CN([C@@H](C)CO)C(=O)c2cc(N(C)C)ccc2O1	none
C/C=C/C(=O)OCC(=O)NC(=O)NC(C)C	Statin myotox sup 100.8 (no result: E-sel inducer)
Cc1nn(CC(=O)NCc2ccccc2)c(C)c1[N+](=O)[O-]	Statin myotox sup 84.1 (no result: E-sel inducer)
Cc1nn(CC(=O)NCCc2ccccc2)c(=O)c2ccccc12	Statin myotox sup 136.8 (no result: E-sel inducer)
COCC(=O)N1[C@H](CO)[C@H]2c3ccccc3N(C(=O)c3cccc(OC)c3)C[C@H]21	none
CC(C)NC(=O)Nc1ccc2c(c1)C(=O)N(C)[C@H]1CC[C@H](CC(=O)Nc3ccccc3Cl)O[C@@H]1CO2	none (no result: Yeast UUG start)
O=C(N[C@@H]1CC[C@H](CCNS(=O)(=O)c2ccccc2)O[C@@H]1CO)c1cccc(F)c1	none
O=C(Nc1ccc(Oc2ccccc2)cc1)C1CCCO1 (configuration not stated)	esBAF inh 51.6 (no result: PglD inh, E-sel inducer, Yeast UUG start)
CCOC(=O)c1cccc(NC(=O)C2CCCO2)c1 (configuration not stated)	Statin myotox sup 101.7 (no result: E-sel inducer)
Cc1noc(C)c1S(=O)(=O)Nc1ccc2c(c1)CC(=O)N([C@@H](C)CO)C[C@H](C)[C@@H](CN(C)Cc1ccc(-c3ccccc3)cc1)O2	none (no result: PglD inh, Yeast UUG start)
Cc1noc(C)c1S(=O)(=O)Nc1ccc2c(c1)CC(=O)N([C@@H](C)CO)C[C@H](C)[C@@H](CN(C)Cc1ccc(Cl)c(Cl)c1)O2	Statin myotox sup 78.6
Cc1noc(C)c1S(=O)(=O)Nc1ccc2c(c1)CC(=O)N([C@H](C)CO)C[C@@H](C)[C@@H](CN(C)Cc1ccc(C(F)(F)F)cc1)O2	Statin myotox sup 82.6
Cc1noc(C)c1S(=O)(=O)Nc1ccc2c(c1)CC(=O)N([C@@H](C)CO)C[C@@H](C)[C@@H](CN(C)Cc1ccc(C(F)(F)F)cc1)O2	none
Cc1noc(C)c1S(=O)(=O)Nc1ccc2c(c1)CC(=O)N([C@H](C)CO)C[C@@H](C)[C@H](CN(C)Cc1ccc(-c3ccccc3)cc1)O2	Statin myotox sup 111.0 (no result: PglD inh, Yeast UUG start)
Cc1noc(C)c1S(=O)(=O)Nc1ccc2c(c1)CC(=O)N([C@H](C)CO)C[C@H](C)[C@@H](CN(C)Cc1ccc(Cl)c(Cl)c1)O2	Statin myotox sup 133.8
